# Laboratory results taken from article PMC3031448 (Journal of natural products, 2009).
# Experiments:
# [1] = tested on: DLD-1 human colorectal adenocarcinoma; experiment: Cytotoxicity; format: cell-based; conditions: DLD-1 vs Vero
# [2] = tested on: PANC-1 human pancreatic carcinoma; experiment: Cytotoxicity; format: cell-based; conditions: Panc-1 vs Vero
# SR (leukemia) = conditions: NCI panel
# HCT-116 (colon) = conditions: NCI panel
# SK-MEL-5 (melanoma) = conditions: NCI panel
# T-47D (breast) = conditions: NCI panel
# MDA-MB-468 (breast) = conditions: NCI panel
smiles,measurement,setting,value
"CC(=O)N(C)CCc1cc(Br)c(OCCCNc2ncn(C)c3ncnc2-3)c(Br)c1 [Aphrocallistin, aphrocallistin]",potency against DLD-1 relative to Vero cells,[1],about 10 times
same,potency against Panc-1 cells relative to Vero cells,[2],about three
same,selectivity of growth inhibition,SR (leukemia),significant selectivity of growth inhibition
same,selectivity of growth inhibition,HCT-116 (colon),significant selectivity of growth inhibition
same,selectivity of growth inhibition,SK-MEL-5 (melanoma),significant selectivity of growth inhibition
same,selectivity of growth inhibition,T-47D (breast),significant selectivity of growth inhibition
same,selectivity of growth inhibition,MDA-MB-468 (breast),significant selectivity of growth inhibition
